From patent US12071488B2, “Method of sensitizing cancer cells to anti-cancer treatment” (TWO TO BIOTECH LTD., priority 2017, dated 2024)

Columns and labels:
MDA-MB-468 cells = experiment: Analysis of apoptosis in MDA-MB-468 cells with APC1 and Herceptin; type: cell-based, human; settings: Herceptin 12 μg/ml, APC1 250 μg/ml (FIG. 9)
Protocol: A bar graph showing the level of apoptosis in MDA-MB-468 cells without any treatment (control), upon administration of Herceptin (12 μg/ml), APC1 (250 μg/ml) or upon administration of APC and Herceptin at the above amounts. The level of apoptosis is also shown for N87 cell in the absence and in the presence of Herceptin (at 100 μg/ml).
Cells were examined for apoptosis or HER2 expression using FACS analysis. The HER2 antibody used was abcam ab16901. The marker Annexin (Enco) was used for assessment of apoptosis.

MDA-MB-231 cells = experiment: FACS analysis of apoptosis (Annexin) in MDA-MB-231 cells; type: cell-based, human; settings: for level of apoptosis: MDA-MB-231 not pre-treated with APC1, 72 hours (FIG. 5A)
Protocol: Cells were grown until 70-80% density was reached. Then the growth medium was discarded and the cells were treated with trypsin and medium as described above. The cells that were suspended in medium and Trypsin were then transferred into 50 ml conical tubes and centrifuged at 300 g for 10 min in 4° C. Next, the supernatant was discarded and 2 ml fresh medium was added to the cell pellet. The cells were fluidized and additional 13 ml medium was added to the cells such that the cells are suspended in a total of 15 ml medium. The cells were counted and around 40,000 cells were placed in each one of nine 25 cm^2 flasks in 10 ml medium (in each flask). Cells were placed in the incubator overnight. The next day, the supernatant was discarded and replaced by 10 ml DMEM or RPMI containing 2.5% FBS (instead of 10% FBS). The cell flasks were further treated for example as follows: • Flasks 1+9: no treatment • Flask 2: 250 μg/ml APC1 • Flask 3: no treatment • Flask 4: no treatment • Flask 5: no treatment • Flask 6: 250 μg/ml APC1 • Flask 7: 250 μg/ml APC1 • Flask 8: 250 μg/ml APC1
Cells treated as indicated above were incubated in an incubator for 48 hours. Then, a second dose of APC1 (at the same final concentration) was added to cell flasks 2, 6, 7 and 8 and the cells were further incubated for 24 hours. If the cells reached over 85% confluence, 50% of the cells were scraped from the flask. The media was discarded, and 10 ml DMEM or RPMI containing 10% FBS were added to each flask. The cell flasks were further treated for example as follows (with a third dose of APC and/or Kadcyla): • Flasks 1+9: no treatment • Flask 2: 250 μg/ml APC1 • Flask 3: 5 μg/ml Kadcyla • Flask 4: 10 μg/ml Kadcyla • Flask 5: 25 μg/ml Kadcyla • Flask 6: 250 μg/ml APC+5 μg/ml Kadcyla • Flask 7: 250 μg/ml APC1+10 μg/ml Kadcyla • Flask 8: 250 μg/ml APC1+25 μg/ml Kadcyla (optionally)
Cells were incubated for further 72-96 hours. Finally the cells were collected and subjected to analysis (FACS analysis of apoptosis markers, or assessment of HER2 expression) as described below. […]

Row | Substance | level of apoptosis (MDA-MB-468 cells) | level of cellular apoptosis (MDA-MB-231 cells; MDA-MB-231, prolonged incubation, Kadcyla 96 hours (FIG. 6)) | level of apoptosis (MDA-MB-231 cells; Kadcyla 5 μg/ml) | level of apoptosis (MDA-MB-231 cells; Kadcyla 10 μg/ml)
1 | Herceptin: humanized monoclonal antibody that interferes with the HER2/neu receptor [reference compound] | 10% | – | – | –
2 | Kadcyla: antibody-drug conjugate of the monoclonal antibody trastuzumab linked to the cytotoxic agent emtansine (DM1) | – | low level of apoptosis | practically none | 10%
